We go through 1 molecule from ChEMBL document CHEMBL1133369, “Synthesis and preliminary biological evaluation of [3H]-MRE 3008-F20: the first high affinity radioligand antagonist for the human A3 adenosine receptors” (Bioorg Med Chem Lett, 2000).

Protein sequences, listed by entry. Tags and fused reporters are not part of them.
UniProt P0DMS8, whole entry, looked up: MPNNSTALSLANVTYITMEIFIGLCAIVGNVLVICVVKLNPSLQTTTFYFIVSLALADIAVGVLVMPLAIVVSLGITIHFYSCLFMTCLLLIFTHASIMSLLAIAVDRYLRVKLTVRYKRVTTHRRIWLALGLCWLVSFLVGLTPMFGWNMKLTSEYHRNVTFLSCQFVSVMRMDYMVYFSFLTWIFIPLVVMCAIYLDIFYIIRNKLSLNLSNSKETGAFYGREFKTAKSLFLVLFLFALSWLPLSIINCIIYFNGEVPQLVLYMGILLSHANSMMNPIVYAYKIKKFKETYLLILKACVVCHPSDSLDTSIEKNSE
UniProt P30542, whole entry, looked up: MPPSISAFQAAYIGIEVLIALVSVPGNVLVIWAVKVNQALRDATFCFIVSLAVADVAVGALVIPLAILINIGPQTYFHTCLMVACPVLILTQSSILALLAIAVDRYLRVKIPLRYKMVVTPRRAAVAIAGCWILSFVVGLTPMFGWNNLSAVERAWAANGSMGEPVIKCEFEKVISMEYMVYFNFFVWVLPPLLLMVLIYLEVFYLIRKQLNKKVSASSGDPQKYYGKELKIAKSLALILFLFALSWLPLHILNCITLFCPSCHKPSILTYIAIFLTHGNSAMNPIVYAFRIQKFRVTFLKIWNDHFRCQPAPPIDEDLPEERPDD

Experiment [1] addresses Adenosine receptors; A2a & A3 (Homo sapiens) (UniProt P0DMS8+P29274). Kind of experiment: Selectivity ratio for binding affinities of human Adenosine A2A and Adenosine A3 receptors. It is filed as protein assay.
Experiment [2] addresses Adenosine receptors; A1 & A3 (Homo sapiens) (UniProt P30542+P0DMS8). Nature of the experiment: Selectivity ratio for binding affinities of human Adenosine A1 and Adenosine A3 receptors. It is filed as protein assay.

For the molecule `CCCn1cc2c(nc(NC(=O)Nc3ccc(OC)cc3)n3nc(-c4ccco4)nc23)n1`, the Ratio turned out to be 486 in experiment [1] and 4150 in experiment [2].
